From ChEMBL document CHEMBL1123833, “Novel inhibitors of rat lens aldose reductase: N-[[(substituted amino)phenyl]sulfonyl]glycines” (J Med Chem, 1987) come the findings set out here.

The assay addresses Aldo-keto reductase family 1 member B1 (Rattus norvegicus, UniProt P07943). The assay is described as follows: Concentration required to produce 50% inhibition of aldose reductase enzyme (the literature IC50 value for sorbinil is 0.07 uM).

As usually defined, the IC50 is the concentration needed to halve the response being measured. Lower therefore signals inhibition by little substance. Compound `O=C1NC(=O)[C@@]2(CCOc3ccc(F)cc32)N1` [SORBINIL] yielded an IC50 of 73 nM.
